Patent publication US20220184072A1 (priority 2019, published 2022)

Protein sequences, listed by entry. Tags and fused reporters are not part of them. Residues count along the entry.
UniProt P14416, 1-414 isoform 2: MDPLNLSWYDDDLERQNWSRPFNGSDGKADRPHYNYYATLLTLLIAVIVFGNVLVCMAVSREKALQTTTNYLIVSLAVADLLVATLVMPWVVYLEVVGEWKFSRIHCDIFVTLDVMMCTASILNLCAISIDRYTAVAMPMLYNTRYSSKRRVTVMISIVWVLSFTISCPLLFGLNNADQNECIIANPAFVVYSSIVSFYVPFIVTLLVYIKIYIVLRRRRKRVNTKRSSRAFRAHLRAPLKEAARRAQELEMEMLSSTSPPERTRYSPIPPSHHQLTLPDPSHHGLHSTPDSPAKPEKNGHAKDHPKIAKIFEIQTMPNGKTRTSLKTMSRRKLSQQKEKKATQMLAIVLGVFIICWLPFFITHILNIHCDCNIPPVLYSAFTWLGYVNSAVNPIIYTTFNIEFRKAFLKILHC
UniProt P31645, whole entry: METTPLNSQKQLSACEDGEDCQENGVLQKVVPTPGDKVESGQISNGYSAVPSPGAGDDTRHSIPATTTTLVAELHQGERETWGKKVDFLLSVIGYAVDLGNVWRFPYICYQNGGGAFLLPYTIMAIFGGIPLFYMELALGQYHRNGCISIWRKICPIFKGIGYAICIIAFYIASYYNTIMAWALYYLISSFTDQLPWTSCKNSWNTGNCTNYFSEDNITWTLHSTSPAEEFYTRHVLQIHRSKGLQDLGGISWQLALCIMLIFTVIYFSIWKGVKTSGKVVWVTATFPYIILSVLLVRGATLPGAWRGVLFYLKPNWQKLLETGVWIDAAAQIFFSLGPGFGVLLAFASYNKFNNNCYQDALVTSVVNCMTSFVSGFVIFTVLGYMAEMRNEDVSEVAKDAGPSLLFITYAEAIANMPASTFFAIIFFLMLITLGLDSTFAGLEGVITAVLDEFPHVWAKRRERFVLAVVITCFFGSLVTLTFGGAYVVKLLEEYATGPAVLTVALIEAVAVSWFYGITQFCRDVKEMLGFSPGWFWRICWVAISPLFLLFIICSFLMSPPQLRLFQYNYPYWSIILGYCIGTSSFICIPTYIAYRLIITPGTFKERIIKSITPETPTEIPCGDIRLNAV

Columns and labels:
[1] = biological target: D2 (Homo sapiens, UniProt P14416); test: Receptor binding, D2; conditions: @ 100 nM
[2] = biological target: SERT (Homo sapiens, UniProt P31645); test: Receptor binding, SERT; conditions: @ 200 nM

SMILES | maximum inhibition [1] [% @] | maximum inhibition [2] [% @]
O=C1CN2c3c(cccc3[C@@H]3CN(CCCOc4ccc(F)c(O)c4)CC[C@@H]32)N1 | 0 | 
O=C1CN2c3c(cccc3[C@@H]3CN(CCCOc4ccc(F)cc4O)CC[C@@H]32)N1 |  | 5
